# OPERA 2.9 data: water solubility values

From the experimental data distributed with OPERA 2.9.

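The OPERA project collected these measurements from public sources as training and test data for property models. A listed value is a point estimate from one report or more. Conditions of the individual experiments are not part of the data. A value may pool stereoisomers or salt forms, and the file does not say which form was measured. Some entries may be limits or estimates that an upstream database listed as plain numbers.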

Water solubility is log10 of mol/L, nominally at 25 °C; higher is more soluble.

For CN(C)CCC(O)(c1ccccc1)c1ccccc1Cl (stereo unspecified) [Chlophedianol] the data give log S -3.669 (log10 mol/L). Listed for O=C(O)CCS(=O)(=O)CCC(=O)O [Propionic acid, 3,3'-sulfonyldi-]: log S -1.967 (log10 mol/L). The entry for CCCCCCCCCCCCCCCCCCN(CCO)CCO [2,2'-(Octadecylimino)diethanol] lists log S -5.775 (log10 mol/L). For CCc1nc(C(=O)O)c(C(=O)O)[nH]1 [2-Ethyl-1H-imidazole-4,5-dicarboxylic acid] the data give log S -2.834 (log10 mol/L).

The entry for Clc1ccc(Oc2cc(Cl)cc(Cl)c2Cl)cc1 lists log S -7.14 (log10 mol/L). Listed for C/C=N/NC(N)=O [(2E)-2-Ethylidenhydrazincarboxamid]: log S -0.542 (log10 mol/L). Nc1ccc(Br)cc1S(=O)(=O)O [2-Amino-5-bromobenzenesulphonic acid] has log S -2.627 (log10 mol/L). The entry for C[C@H](CCC(=O)O)[C@H]1CC[C@H]2[C@@H]3C(=O)C[C@H](C(=O)O)[C@](C)(CCC(=O)O)[C@H]3CC(=O)[C@]12C [Oxododecahydro-1H-cyclopenta[a]naphthalene-7-carboxylic acid] lists log S -2.809 (log10 mol/L).

CCN(CC)C(=S)[S-].CCN(CC)C(=S)[S-].[Zn+2] [Zinc diethyldithiocarbamate] is reported with log S -5.533 (log10 mol/L). CC(C)S [Isopropyl mercaptan] has log S -1.603 (log10 mol/L). The entry for CC(=O)CC(=O)OC1CCCCC1 [Acetoacetic acid, cyclohexyl ester] lists log S -2.904 (log10 mol/L). CNCCC=C1c2ccccc2CCc2ccccc21 [Nortriptyline] is reported with log S -5.479 (log10 mol/L).

The entry for O=C(O)COc1ccc(C2CCCCC2)cc1 [(4-cyclohexylphenoxy)acetic acid] lists log S -3.495 (log10 mol/L). S=c1ncc2nccnc2[nH]1 [Pteridine-2(1H)-thione] has log S -2.36 (log10 mol/L). Listed for Nc1ccc(S(=O)(=O)NC2=CC(=O)c3ccccc3C2=O)cc1: log S -3.863 (log10 mol/L). For CC1=CC[C@H](C(C)C)C=C1 [(R)-alpha-Phellandrene] the data give log S -4.494 (log10 mol/L).

For O=C(O)C(=O)c1ccc2c(c1)OCO2 [1,3-Benzodioxol-5-yl(oxo)acetic acid] the data give log S -1.191 (log10 mol/L). NC(=O)c1cc(=O)[nH]c(=O)[nH]1 [2,6-dioxo-1,2,3,6-tetrahydropyrimidine-4-carboxamide] has log S -2.492 (log10 mol/L). For OCCC(F)(F)C(F)(F)C(F)(F)C(F)(F)F [4:2 Fluorotelomer alcohol] the data give log S -2.719 (log10 mol/L). Listed for CNc1ccc(NC)c2c1C(=O)c1ccccc1C2=O: log S -6.86 (log10 mol/L).

CCCNc1c([N+](=O)[O-])cc(C(F)(F)F)cc1[N+](=O)[O-] [Benzenamine, 2,6-dinitro-N-propyl-4-(trifluoromethyl)-] has log S -4.46 (log10 mol/L). The entry for Clc1nc2ccccc2s1 [2-Chlorobenzothiazole] lists log S -2.735 (log10 mol/L). The entry for O=c1[nH]c(=O)c2[nH]c(=O)[nH]c(=O)c2[nH]1 [1,5-Dihydropyrimido(5,4-d)pyrimidine-2,4,6,8(3H,7H)tetrone] lists log S -5.456 (log10 mol/L). Listed for N[C@H](C(=O)O)[C@H](O)c1ccc(O)c(O)c1 [Droxidopa]: log S -1.144 (log10 mol/L).

The entry for CCOC(=O)CC(=O)c1ccccc1 [Ethyl benzoylacetate] lists log S -2.201 (log10 mol/L). CCCC/C=C\CCCCCCOC(C)=O [cis-7-Dodecenyl acetate] has log S -5.6 (log10 mol/L). For COc1ccc(NC(C)=O)cc1Cl [Acetamide, N-(3-chloro-4-methoxyphenyl)-] the data give log S -2.2 (log10 mol/L). CC(=O)[C@H]1CC[C@H]2[C@@H]3CCC4=CC(=O)CC[C@]4(C)[C@H]3[C@H](O)C[C@]12C is reported with log S -3.821 (log10 mol/L).

For NC(=O)N=C[C@H](O)[C@@H](O)[C@H](O)[C@H](O)CO [1-(Carbamoylimino)-1-deoxy-D-glucose] the data give log S 0.197 (log10 mol/L). CC(C)c1ccc(Br)c(=O)c(O)c1Br is reported with log S -4.47 (log10 mol/L). Cn1cc(C(O)=Nc2ccccc2-c2cc(F)c(F)c(F)c2)c(C(F)F)n1 [Fluxapyroxad] has log S -5.04 (log10 mol/L). CN1C(CCl)Nc2cc(Cl)c(S(N)(=O)=O)cc2S1(=O)=O (stereo unspecified) [Methyclothiazide] has log S -3.777 (log10 mol/L).

Listed for CCOC(=O)/C(=C\c1cccc(Cl)c1)N=CO [Ethyl 2-formamido (3-chlorophenyl) acrylate]: log S -3.11 (log10 mol/L). Cc1c(Cc2c(C)n(C)n(-c3ccccc3)c2=O)c(=O)n(-c2ccccc2)n1C has log S -2.951 (log10 mol/L). For OCCOC1(F)OC(F)(F)OC1OC(F)(F)F (stereo unspecified) the data give log S -1.817 (log10 mol/L). For O=S(=O)(O)c1cscn1 [1,3-Thiazole-4-sulfonic acid] the data give log S 0.36 (log10 mol/L).

The entry for COC(=O)/C=C(\C)C(=O)O [(E)-4-Methoxy-2-methyl-4-oxobut-2-enoic acid] lists log S -0.076 (log10 mol/L). For C1=Cc2ccccc2C1 [1H-Indene] the data give log S -2.832 (log10 mol/L). CCCC1OCC(C)([N+](=O)[O-])CO1 (stereo unspecified) [5-methyl-5-nitro-2-propyl-1,3-dioxane] is reported with log S -1.8 (log10 mol/L). Listed for NC(=O)OCC(COC(N)=O)c1ccccc1 [Felbamate]: log S -2.507 (log10 mol/L).

O=c1n(CCCN2CCN(c3cccc(Cl)c3)CC2)nc2ccccn12 [Trazodone] is reported with log S -3.108 (log10 mol/L). Cc1cnns1 [5-Methyl-1,2,3-thiadiazole] is reported with log S 0.096 (log10 mol/L). NC(=O)c1cccc([N+](=O)[O-])c1 [3-Nitrobenzamide] is reported with log S -1.46 (log10 mol/L). Listed for COc1ccc2cc(C(C)=O)ccc2c1 [2-Acetyl-6-methoxynaphthalene]: log S -2.421 (log10 mol/L).

The entry for CC1(C)CCC(C)(C)c2cc(NC(=O)c3ccc(C(=O)O)cc3)ccc21 [Tamibarotene] lists log S -5.786 (log10 mol/L).

The first 4 entries again:

CN(C)CCC(O)(c1ccccc1)c1ccccc1Cl (stereo unspecified) [Chlophedianol] has log S -3.669 (log10 mol/L).
O=C(O)CCS(=O)(=O)CCC(=O)O [Propionic acid, 3,3'-sulfonyldi-] has log S -1.967 (log10 mol/L).
CCCCCCCCCCCCCCCCCCN(CCO)CCO [2,2'-(Octadecylimino)diethanol] has log S -5.775 (log10 mol/L).
CCc1nc(C(=O)O)c(C(=O)O)[nH]1 [2-Ethyl-1H-imidazole-4,5-dicarboxylic acid] has log S -2.834 (log10 mol/L).